Measured values as given in patent US20120046305A1.

Amino acid sequences for entries named in this document (tags omitted).
UniProt O75762, whole entry: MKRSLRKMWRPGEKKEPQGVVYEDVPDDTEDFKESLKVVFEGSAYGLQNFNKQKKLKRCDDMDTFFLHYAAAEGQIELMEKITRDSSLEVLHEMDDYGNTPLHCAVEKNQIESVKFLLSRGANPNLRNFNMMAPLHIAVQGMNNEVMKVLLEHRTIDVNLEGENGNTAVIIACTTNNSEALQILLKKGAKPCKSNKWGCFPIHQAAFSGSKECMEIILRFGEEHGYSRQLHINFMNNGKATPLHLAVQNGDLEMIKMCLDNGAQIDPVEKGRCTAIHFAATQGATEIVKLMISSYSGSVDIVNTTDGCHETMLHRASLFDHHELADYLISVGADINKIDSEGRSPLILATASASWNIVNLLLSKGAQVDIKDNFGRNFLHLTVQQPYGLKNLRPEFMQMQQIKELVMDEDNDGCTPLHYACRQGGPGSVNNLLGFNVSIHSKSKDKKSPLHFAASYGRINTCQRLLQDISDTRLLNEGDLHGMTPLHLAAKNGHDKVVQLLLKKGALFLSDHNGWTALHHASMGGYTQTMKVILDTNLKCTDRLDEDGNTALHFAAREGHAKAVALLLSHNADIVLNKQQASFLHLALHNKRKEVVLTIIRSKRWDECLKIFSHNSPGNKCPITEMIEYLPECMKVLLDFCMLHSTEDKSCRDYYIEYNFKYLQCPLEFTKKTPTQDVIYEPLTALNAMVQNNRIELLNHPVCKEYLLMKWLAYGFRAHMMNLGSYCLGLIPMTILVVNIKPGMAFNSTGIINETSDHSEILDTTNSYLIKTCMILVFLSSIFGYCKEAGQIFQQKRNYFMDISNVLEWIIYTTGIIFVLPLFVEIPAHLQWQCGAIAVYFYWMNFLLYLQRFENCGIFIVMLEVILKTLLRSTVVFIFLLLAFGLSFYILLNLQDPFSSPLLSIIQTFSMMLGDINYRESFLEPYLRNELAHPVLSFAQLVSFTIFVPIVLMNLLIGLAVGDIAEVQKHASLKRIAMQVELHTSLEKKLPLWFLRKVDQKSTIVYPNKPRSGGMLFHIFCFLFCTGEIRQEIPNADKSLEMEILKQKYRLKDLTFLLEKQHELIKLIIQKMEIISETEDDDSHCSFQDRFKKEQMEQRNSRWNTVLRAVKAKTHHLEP

Molecular target: TRPA1 channel (Homo sapiens, UniProt O75762)
Test: Patch clamp experiments (perforated patch, AITC-activated TRPA1 current)
Settings: read-out: activity as measured in the patch clamp assay (IC50), Table 1; HEK293/TREx cells expressing TRPA1; current activated by 5 μM AITC; Table 1 compounds
Text: Patch clamp experiments permit the detection of currents through the TRPA1 channel in the cell line described above. To permit recording of current at a stable level and prevent the “rundown” observed by other labs, it is necessary to use the perforated patch technique, which prevents dialysis of the cytoplasm with the pipette solution. In normal whole-cell patch clamp recordings, a glass electrode is brought into contact with a single cell and a high-resistance (gigaohm) seal is established with the cell membrane. The membrane is then ruptured to achieve the whole-cell configuration, permitting control of the voltage of the cell membrane and measurement of currents flowing across the membrane using the amplifier attached to the electrode and resulting in the replacement of cytoplasm with the pipette solution. […]
TRPA1 cells were induced 20-48 hours, removed from growth plates, and replated at low density (to attain good single-cell physical separation) on glass coverslips for measurement. […] Currents elicited were quantified at −80 mV and +80 mV. The internal solution consisted of 140 mM cesium aspartate, 10 mM EGTA, 2.2 mM CaCl2, 2.08 mM MgCl2 and 10 mM HEPES, pH 7.2, with 50 nM calculated free Ca^2+ and 60 mg/ml amphotericin added immediately prior to experiments. […]

Cn1c(=O)c2c(ncn2CC(=O)NCC(C)(c2ccccc2)c2ccccc2)n(C)c1=O
IC50: > 10 µM

Cc1ccc(NC(=O)C(C)n2cnc3c2c(=O)n(C)c(=O)n3C)cc1 (centres unmarked)
IC50: < 1 µM
